For one experiment, the target named is 5-HT4 receptors (Cavia porcellus (Guinea pig), UniProt O70528). The experiment in a line: Affinity as regards 5-HT4 receptors: competition against [3H]-GR113808 on striatal membranes. Particulars: read-out: Ki in nM; 0.1 nM [3H]-GR113808, guinea pig striatal membranes.
The target of experiment [1] is human acetylcholinesterase (Homo sapiens (Human), UniProt P22303). Type of experiment: biochemical. The settings on record: acetylcholinesterase from human erythrocytes.

Amino acid sequences for entries named in this document (tags omitted). A change or cut given only in a name is not applied to a line headed by its entry. Chains listed by the source or under a name are the forms on record and can include a tag or linker. Residues count along the entry.
UniProt O70528: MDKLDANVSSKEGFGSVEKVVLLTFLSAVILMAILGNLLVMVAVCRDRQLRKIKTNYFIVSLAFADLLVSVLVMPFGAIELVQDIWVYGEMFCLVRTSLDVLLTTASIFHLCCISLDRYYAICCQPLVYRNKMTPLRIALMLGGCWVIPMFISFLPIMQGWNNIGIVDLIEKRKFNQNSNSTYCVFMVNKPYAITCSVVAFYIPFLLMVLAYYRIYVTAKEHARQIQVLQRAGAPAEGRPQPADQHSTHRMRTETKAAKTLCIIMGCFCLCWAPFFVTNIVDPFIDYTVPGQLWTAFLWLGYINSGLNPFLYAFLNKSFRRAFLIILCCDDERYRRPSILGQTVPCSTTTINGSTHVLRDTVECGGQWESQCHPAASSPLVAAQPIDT
UniProt P22303, 32-574 with tags or gaps limits assumed: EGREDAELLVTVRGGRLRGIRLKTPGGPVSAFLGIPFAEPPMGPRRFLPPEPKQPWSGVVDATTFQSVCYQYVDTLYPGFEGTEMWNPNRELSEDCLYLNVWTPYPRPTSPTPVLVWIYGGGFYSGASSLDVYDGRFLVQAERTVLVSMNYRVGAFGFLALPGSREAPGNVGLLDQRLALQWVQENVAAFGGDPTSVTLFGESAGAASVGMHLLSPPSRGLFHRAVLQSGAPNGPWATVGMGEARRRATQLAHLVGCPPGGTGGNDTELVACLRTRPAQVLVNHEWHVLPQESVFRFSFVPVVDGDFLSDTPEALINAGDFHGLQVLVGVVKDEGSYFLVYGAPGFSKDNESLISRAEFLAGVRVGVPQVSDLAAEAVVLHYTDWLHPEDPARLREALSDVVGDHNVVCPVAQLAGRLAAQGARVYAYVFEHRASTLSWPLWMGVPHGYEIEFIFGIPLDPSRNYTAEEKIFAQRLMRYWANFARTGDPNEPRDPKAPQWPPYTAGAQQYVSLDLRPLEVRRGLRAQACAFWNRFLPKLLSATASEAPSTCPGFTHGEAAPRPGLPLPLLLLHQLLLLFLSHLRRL

By Ki is commonly meant the equilibrium dissociation constant of an inhibitor or competing ligand from its target. Regarding `COc1cc(N)c(Cl)cc1C(=O)CCC1CCN(CC2CCC2)CC1` [Compound 7, 1-(4-amino-5-chloro-2-methoxyphenyl)-3-[1-(cyclobutylmethyl)-4-piperidyl]propan-1-one], at 5-HT4 receptors, the Ki amounted to 8.8 nM.

The term IC50 denotes the concentration needed to halve the response being measured. Higher therefore signals lower potency. `COc1cc(N)c(Cl)cc1C(=O)CCC1CCN(CC2CC2)CC1` [Compound 6, 1-(4-amino-5-chloro-2-methoxyphenyl)-3-[1-(cyclopropylmethyl)-4-piperidyl]propan-1-one]: the IC50 in experiment [1] amounted to 937 nM. The Ki at 5-HT4 receptors is 14.8 nM.

The compound `COc1cc(N)c(Cl)cc1C(=O)OCC1CCN(CC2CCCCC2)CC1` [Compound 20, [1-(cyclohexylmethyl)-4-piperidyl]methyl 4-amino-5-chloro-2-methoxybenzoate] displayed an IC50 in experiment [1] of 2720 nM.

Turning to `COc1cc(N)c(Cl)cc1C(=O)CCC1CCN(CC2CCCCC2)CC1` [Compound 9, 1-(4-amino-5-chloro-2-methoxyphenyl)-3-[1-(cyclohexylmethyl)-4-piperidyl]propan-1-one], the IC50 in experiment [1] stood at 63 nM.

Consider `COc1cc(N)c(Cl)cc1C(=O)CCC1CCN(CC2CCNCC2)CC1` [Compound 13, 1-(4-amino-5-chloro-2-methoxyphenyl)-3-[1-[(piperidin-4-yl)methyl]-4-piperidyl] propan-1-one dichlorohydrate], for which, on 5-HT4 receptors, the Ki was found to be 2.5 nM.

For the compound `COc1cc(N)c(I)cc1C(=O)CCC1CCN(CC2CCCCC2)CC1` [Compound 15, 1-(4-amino-5-iodo-2-methoxyphenyl)-3-[1-(cyclohexylmethyl)-4-piperidyl]propan-1-one], on 5-HT4 receptors, the Ki is 18.1 nM.

Consider `COc1cc(N)c(Cl)cc1C(=O)C(C)CC1CCN(CC2CCCCC2)CC1` (stereo not shown) [Compound 10, 1-(4-amino-5-chloro-2-methoxyphenyl)-3-[1-(cyclohexylmethyl)-4-piperidyl]-2 methylpropan-1-one], for which half-maximal inhibition in experiment [1] (IC50) required 201 nM.

With `COc1cc(N)c(Cl)cc1C(=O)CCC1CCN(CCC2CCCCC2)CC1` [Compound 16, 1-(4-amino-5-chloro-2-methoxyphenyl)-3-[1-(cyclohexylethyl)-4-piperidyl]propan-1-one], in experiment [1], half-maximal inhibition (IC50) was put at 222 nM.

Consider `COc1cc(N)c(Br)cc1C(=O)CCC1CCN(CC2CCCCC2)CC1` [Compound 14, 1-(4-amino-5-bromo-2-methoxyphenyl)-3-[1-(cyclohexylmethyl)-4-piperidyl]propan-1-one], for which the IC50 in experiment [1] was found to be 99 nM.

For the origin of these results see patent US9663465B2, “Acetylcholinesterase inhibitors and promnesiant serotonin 5-HT4 receptor agonists, their methods of preparation and the pharmaceutical compositions containing the same” (UNIVERSITE DE CAEN, priority 2013, dated 2017).
